## scFv variants of Ab-14 (heavy chain) against a SARS-CoV-2 spike peptide

From the AlphaSeq antibody data of Li et al. 2023 (doi:10.1038/s41467-023-39022-2), copy in the FLAb collection.

All variants were tested on one target, the spike HR2 peptide PDVDLGDISGINAS (SARS-CoV-2).

Ab-14 is the parent antibody, in scFv form: VH, then three GGGGS repeats, then VL. The light chain is unchanged in all variants.
VH: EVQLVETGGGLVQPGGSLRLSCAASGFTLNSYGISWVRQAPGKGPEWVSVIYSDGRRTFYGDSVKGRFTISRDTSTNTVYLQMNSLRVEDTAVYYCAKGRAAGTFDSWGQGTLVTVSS
VL: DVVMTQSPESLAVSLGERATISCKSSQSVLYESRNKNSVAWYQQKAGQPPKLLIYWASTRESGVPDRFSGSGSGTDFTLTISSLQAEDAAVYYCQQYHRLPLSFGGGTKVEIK

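The parent was found by panning a naive human phage display library on the peptide. Designed CDR sequences, proposed from the first random library and measured here. Several design methods are mixed in this list. Affinity was read by AlphaSeq, a pooled yeast mating assay with surface-displayed partners. Mating (16 h, 30 °C) was followed by selection of diploids and sequencing of their barcodes. A regression on co-assayed BCL2-family reference pairs converts the normalised counts of each replicate to an apparent Kd. There are six technical replicates.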

Each variant is given by its three heavy chain CDRs, as the data file delimits them; those of the parent are GFTLNSYGIS, VIYSDGRRTFYGDSVK, GRAAGTFDS. This list holds designs with at most six substitutions. Each Kd is an estimate from the mating assay, the geometric mean of the replicates in which the pair was seen; lower is stronger. An entry "no signal" has no value in the source: the pair was not observed among the diploids in any replicate. This suggests poor binding but is not conclusive. A sequence measured in both rounds can read differently, since the two assays cover different ranges. Empty control strains, which show no peptide, gave a signal in 1% of pairings with all heavy chain designs; the median was 120 nM and 95% of these signals were weaker than 7.0 nM. No background was subtracted. The control count says in how many pairings with the empty strains this scFv gave a signal. Some sequences occur more than once in the pool; their replicates are pooled. The authors averaged sequences with at least three values out of six and counted those with two or fewer as poor binders. The parent sequence was in this pool as ten entries: three were never detected, three once, and four in most replicates, with averages from 2.2 nM to 240 nM.

The variant GNTLNEYGIS / VIYSDGRRTFYTDSVK / GRAAGTFDS gave 28 nM (4 of 6 replicates; controls 0 of 18).
The variant GFTLNDYGIS / VIYSDGRRTFYGDSVK / GRAAGTFTT gave no signal (0 of 6 replicates; controls 2 of 18).
The variant GFGLNEYGIS / VIYSDGRRTFYGDSVK / GRAAGTFDV gave 2.2 nM (6 of 6 replicates; controls 0 of 18).
The variant GFTLNEYGIS / VIYSDGNRTFYGDSVK / GRAAVTFGQ gave no signal (0 of 6 replicates; controls 0 of 18).
The variant GFELNSYGIS / VIYSDGRRTFYGDSVK / GKTAGTFDS gave 14 nM (5 of 6 replicates; controls 0 of 18).
The variant GFDLNSYGIS / VIYSDGRRTFYIDSVK / GRAAGTFND gave 3.6 nM (3 of 6 replicates; controls 0 of 18).
The variant GDTLDSYGIS / VIYSDGRRTPYGDSVK / GRAAGTALS gave no signal (0 of 6 replicates; controls 0 of 18).
The variant GFWLNEYGIS / VIYSDGRRTAYGDSVK / GRAAGTFDS gave 3.0 nM (6 of 6 replicates; controls 0 of 18).
The variant GFTLNSYGIS / VIYSDGRRTFYAWSVK / GQLAGTFDS gave no signal (0 of 6 replicates; controls 0 of 18).
The variant GFELNSYGIS / VIYSDGRRTFYGDQVK / GREAGTFDT gave 1.1 nM (6 of 6 replicates; controls 0 of 18).
The variant GETLNSYGIS / VIYSDGRRQFYGDSVK / GRLAGTFDS gave 4.8 nM (1 of 6 replicates; controls 0 of 18).
The variant GFTLNSYGIS / VIYSDGKRTFYGDKVK / GRTAGTFDS gave no signal (0 of 6 replicates; controls 0 of 18).
The variant GFSLNMYGIS / VIYSDGRRTFYHDSVK / GRTAGTFDS gave 32 nM (1 of 6 replicates; controls 0 of 18).
The variant GFSLNMYGIS / VIYSDGRRTWYIDSVK / GRAAGTFDS gave 100 nM (2 of 6 replicates; controls 1 of 18).
The variant GFTLNSYGIS / VMYSDGRRTFYSDSVK / GQAAGTFDS gave 9.0 nM (6 of 6 replicates; controls 0 of 18).
The variant GFTLNDYGIS / VIYSDGRRTFYGDEVK / GSAAGTFDS gave 14 nM (5 of 6 replicates; controls 0 of 18).
The variant GFVLNSYGIS / VIYSDGRRTFYADSVK / GKAAGTFDS gave no signal (0 of 6 replicates; controls 0 of 18).
The variant GFTLNSYGIS / VIYSDGRRTFYGDSVK / GRAANTFDT gave 85 nM (1 of 6 replicates; controls 0 of 18).
The variant GFTLNSYGIS / VIYSDGYRTAYGDSVK / GRAAGTFDS gave 41 nM (6 of 6 replicates; controls 2 of 18).
The variant GFTLNSYGIS / VIYADGRRTFYGDSVD / GRAIGTFDS gave 290 nM (1 of 6 replicates; controls 0 of 18).
The variant GFQLNEYGIS / VIYSDGRRTFYGDSVK / GRIAGTFDS gave 360 pM (6 of 6 replicates; controls 0 of 18).
The variant GFQLNEYGIS / VIYSDGRRTFYGDSVK / GRYAGTFDT gave 6.0 nM (6 of 6 replicates; controls 1 of 18).
The variant GFTLNSYGIS / VIYADGMRTFYGDSVK / GRAAGTFDS gave 4.4 nM (12 of 12 replicates; controls 0 of 36).
The variant GFTVNSYGIS / VIYSDGRRTFYADSVK / GQAAGEFSS gave no signal (0 of 6 replicates; controls 0 of 18).
The variant GFTLSSYGIS / VIYSDGRRTFYADSVA / GRAAGTFDS gave 9.2 nM (4 of 6 replicates; controls 0 of 18).
The variant KFDLNSYGIS / VIYSDGKRTFYGDSVK / GRNAGTFDS gave 19 pM (2 of 6 replicates; controls 0 of 18).
The variant GFTLNSYGIS / VIYSDGRRTFYGDSVK / VDAAGTFDS gave no signal (0 of 6 replicates; controls 0 of 18).
The variant GFTLNSYGIS / VIYFDGRRTFYGDSVK / GRAPGTFDS gave no signal (0 of 6 replicates; controls 0 of 18).
The variant GFSLNMYGIS / VIYSDGRRTFYQDSVK / GRAAGTFDS gave 18 nM (5 of 6 replicates; controls 0 of 18).
The variant GFYLNSYGIS / VIYSDGRRTFYIDSVK / GQLAGTFDS gave no signal (0 of 6 replicates; controls 0 of 18).
The variant GFHLNSYGIS / VIYSDGRRTFYVDSVK / GRTAGTFDS gave 7.9 nM (1 of 6 replicates; controls 1 of 18).
The variant GFTLNSYGIS / VIYADGRRTFYGDSRK / GRAAGTNKS gave no signal (0 of 6 replicates; controls 0 of 18).
The variant GFDLNSYGIS / VIYSDGRRTFYADSVK / GKTAGTFDS gave 370 pM (6 of 6 replicates; controls 0 of 18).
The variant GFQLNQYGIS / VIYSDGRRTFYSDSVK / GRQAGTFDS gave 740 pM (6 of 6 replicates; controls 0 of 18).
The variant GFSLNEYGIS / VIYSDGRRTFYGDSVK / GKAAGTFDG gave 2.6 nM (6 of 6 replicates; controls 0 of 18).
The variant GFSLNEYGIS / VIYSDGRRTFYGDSVK / GKVAGTFDT gave 620 pM (6 of 6 replicates; controls 0 of 18).
The variant GFSLNSYGIS / VIYSDGRRTFYTDSVK / GRNAGTFDS gave 5.2 nM (6 of 6 replicates; controls 0 of 18).

A selection of 5 entries from above:

| CDR-H1 | CDR-H2 | CDR-H3 | Kd (apparent) | seen in | control signals |
|---|---|---|---|---|---|
| GETLNSYGIS | VIYSDGRRQFYGDSVK | GRLAGTFDS | 4.8 nM | 1 of 6 | 0 of 18 |
| GFTVNSYGIS | VIYSDGRRTFYADSVK | GQAAGEFSS | no signal | 0 of 6 | 0 of 18 |
| GFTLNDYGIS | VIYSDGRRTFYGDSVK | GRAAGTFTT | no signal | 0 of 6 | 2 of 18 |
| GFTLNSYGIS | VIYSDGRRTFYGDSVK | GRAANTFDT | 85 nM | 1 of 6 | 0 of 18 |
| GFTLNSYGIS | VIYFDGRRTFYGDSVK | GRAPGTFDS | no signal | 0 of 6 | 0 of 18 |